The source of these data is paper PMC9728921, “Characterization of a KDM5 small molecule inhibitor with antiviral activity against hepatitis B virus” (PLOS ONE, 2022).

The experiment deals with T1, NSD2 (Homo sapiens, UniProt O96028).
T1 construct: Full Length; purchased RBC (read as Reaction Biology Corporation, named)
T1 sequence (O96028 1-1365): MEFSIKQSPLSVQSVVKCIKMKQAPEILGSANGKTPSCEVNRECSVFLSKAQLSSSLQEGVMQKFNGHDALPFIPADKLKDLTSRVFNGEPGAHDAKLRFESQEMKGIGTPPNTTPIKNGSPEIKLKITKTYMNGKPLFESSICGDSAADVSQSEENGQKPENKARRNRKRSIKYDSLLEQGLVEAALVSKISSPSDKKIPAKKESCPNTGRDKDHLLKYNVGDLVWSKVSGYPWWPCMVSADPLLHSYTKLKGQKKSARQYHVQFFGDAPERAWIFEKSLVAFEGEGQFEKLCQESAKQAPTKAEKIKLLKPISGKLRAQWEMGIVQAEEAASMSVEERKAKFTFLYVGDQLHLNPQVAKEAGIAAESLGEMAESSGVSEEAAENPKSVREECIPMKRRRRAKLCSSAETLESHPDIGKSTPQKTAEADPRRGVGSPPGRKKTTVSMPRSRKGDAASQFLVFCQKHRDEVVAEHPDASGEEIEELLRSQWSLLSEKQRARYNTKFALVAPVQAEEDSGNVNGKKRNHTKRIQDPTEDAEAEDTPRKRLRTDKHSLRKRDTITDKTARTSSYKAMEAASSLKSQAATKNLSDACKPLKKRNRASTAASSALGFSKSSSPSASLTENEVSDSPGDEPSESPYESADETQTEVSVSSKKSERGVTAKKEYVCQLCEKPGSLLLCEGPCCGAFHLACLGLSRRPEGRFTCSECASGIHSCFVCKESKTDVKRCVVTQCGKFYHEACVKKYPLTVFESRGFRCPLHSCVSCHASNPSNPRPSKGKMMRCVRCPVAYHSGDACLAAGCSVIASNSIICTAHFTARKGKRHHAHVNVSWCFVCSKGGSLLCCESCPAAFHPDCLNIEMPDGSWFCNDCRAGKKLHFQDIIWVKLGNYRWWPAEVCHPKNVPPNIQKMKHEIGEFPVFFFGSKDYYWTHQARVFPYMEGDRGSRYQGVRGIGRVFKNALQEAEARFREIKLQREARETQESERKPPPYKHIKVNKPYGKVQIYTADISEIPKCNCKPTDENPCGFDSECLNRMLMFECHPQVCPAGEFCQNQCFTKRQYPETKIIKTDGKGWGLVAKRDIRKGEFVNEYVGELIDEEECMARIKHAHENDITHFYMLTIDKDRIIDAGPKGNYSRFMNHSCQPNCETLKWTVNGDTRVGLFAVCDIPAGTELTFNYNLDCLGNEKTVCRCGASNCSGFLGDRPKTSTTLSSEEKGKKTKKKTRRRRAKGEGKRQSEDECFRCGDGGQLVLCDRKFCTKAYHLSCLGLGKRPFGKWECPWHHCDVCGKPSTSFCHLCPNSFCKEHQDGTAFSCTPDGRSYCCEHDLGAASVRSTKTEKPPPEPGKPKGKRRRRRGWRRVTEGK
The experiment can be described thus: Histone methyltransferase enzymatic assay, NSD2. It counts as biochemical. Here is the method:
Histone methyltransferase assays were performed in 96-well half-area optiplates (PerkinElmer) at room temperature. All concentrations are final unless noted otherwise. Compounds were serially diluted in DMSO and the final DMSO concentration was 1%. A 24 μL reaction mixture contained compound, enzyme, 200 nM of nucleosome or histone substrate, 400 nM ^3H-SAM (83.1 Ci/mmol), 50 mM Tris-HCl (pH 8.0), 50 mM NaCl, 5 mM MgCl2, 1 mM DTT, and 0.01% Tween-20. The plate was sealed, mixed on a Titramax plate shaker at 1200 rpm for 30 sec, and incubated at room temperature for 60 min. The reaction was quenched by addition of 24 μL mixture containing 5 mg/mL PVT-PEI beads and 300 μM unlabeled SAM in water. The plate was sealed, mixed as previously noted, incubated overnight, and read on a TopCount plate reader (PerkinElmer).
Data was analyzed using GraphPad Prism 6.0 (La Jolla, CA). […] IC50 values were calculated as an average of at least two independent experiments.

With `Nc1ncnc2c1ncn2[C@@H]1O[C@H](CSCC[C@H](N)C(=O)O)[C@@H](O)[C@H]1O` [SAH, S-(5′-Adenosyl)-L-homocysteine, reference compound], it took 11 µM to reach half-maximal inhibition (IC50).

A word on the IC50: it is the concentration needed to halve the response being measured. A high value points to weaker potency.
